These compounds were tested on Lewis long tumor. Conditions: mouse, in vivo.

Row | Compound | Effective dose in Lewis long tumor relative to LD50
1 | C=CCSC(=N)NC(=N)N [Example 11, N-Aminoiminomethyl-S-Allyl-Isothiuronium Bromide] | effective in a dose lower than one-tenth of the LD50 value
2 | N=C(N)NC(=N)SCCCCl [Example 15, N-Aminoiminomethyl-S-(3-Chloropropyl)-Isothiuronium Bromide] | effective in a dose lower than one-tenth of the LD50 value
3 | C=CCSC(=NC1CCCCC1)NC(=N)N [Example 22, N-Aminoiminomethyl-N'-Cyclohexyl-S-Allyl-Isothiuronium Chloride] | effective in a dose lower than one-tenth of the LD50 value
4 | N=C(N)NC(=N)SCCCBr [Example 28, N-aminoiminomethyl-S-(3-bromo-propyl)-isothiuronium bromide] | effective in a dose lower than one-tenth of the LD50 value
5 | C=CCN=C(NC(=N)N)SCC=C [Example 45, N-(Aminoiminomethyl)-N'-Allyl-S-Allyl-Isothiuronium Bromide] | effective in a dose lower than one-tenth of the LD50 value
6 | N-Aminoiminomethyl-S-(1-Chloro-2-Hydroxy-Propyl)-Isothiuronium Bromide [Example 14] | effective in a dose lower than one-tenth of the LD50 value
